Assays:
[1] = target: Carbonic anhydrase 5A, mitochondrial (Homo sapiens) (UniProt P35218); test: Activation of human recombinant carbonic anhydrase 5A by stopped-flow CO2 hydrase method
[2] = target: Carbonic anhydrase 5B, mitochondrial (Homo sapiens) (UniProt Q9Y2D0); test: Activation of human recombinant carbonic anhydrase 5B by stopped-flow CO2 hydrase method

Protein sequences, listed by entry. Tags and fused reporters are not part of them. Lines headed by an entry give the natural chain unless they say otherwise; changes in a name come on top.
UniProt P35218: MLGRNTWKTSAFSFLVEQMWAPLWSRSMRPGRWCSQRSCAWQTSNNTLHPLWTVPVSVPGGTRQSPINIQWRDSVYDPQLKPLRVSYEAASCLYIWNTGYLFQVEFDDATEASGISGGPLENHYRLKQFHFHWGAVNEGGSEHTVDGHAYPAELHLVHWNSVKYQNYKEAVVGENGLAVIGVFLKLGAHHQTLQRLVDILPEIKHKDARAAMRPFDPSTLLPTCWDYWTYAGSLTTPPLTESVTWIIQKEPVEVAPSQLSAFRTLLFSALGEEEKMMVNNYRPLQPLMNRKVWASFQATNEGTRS
UniProt Q9Y2D0: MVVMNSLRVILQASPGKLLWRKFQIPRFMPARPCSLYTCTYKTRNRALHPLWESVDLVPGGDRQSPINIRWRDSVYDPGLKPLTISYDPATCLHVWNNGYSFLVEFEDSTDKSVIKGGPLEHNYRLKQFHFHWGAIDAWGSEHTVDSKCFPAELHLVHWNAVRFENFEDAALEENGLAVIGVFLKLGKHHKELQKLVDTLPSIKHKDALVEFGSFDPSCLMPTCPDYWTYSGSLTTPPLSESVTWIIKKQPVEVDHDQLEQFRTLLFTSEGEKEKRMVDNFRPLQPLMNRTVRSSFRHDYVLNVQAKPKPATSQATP

KA [1] | KA [2] | SMILES
9.81 µM | 10.4 µM | N[C@@H](Cc1ccccc1)C(=O)O
 | 0.072 µM | N[C@H](Cc1ccccc1)C(=O)O

From ChEMBL document CHEMBL1139064, “Carbonic anhydrase activators: an activation study of the human mitochondrial isoforms VA and VB with amino acids and amines” (Bioorg Med Chem Lett, 2007)
